From patent publication US10696710B2, “Pharmaceutical targeting of a mammalian cyclic di-nucleotide signaling pathway” (Board of Regents, The University of Texas System, priority 2012, dated 2020)
Where two headings read alike, the source gives them in different places.

Tested on: HEK293T cells
Assay type: cell-based, human
Details: q-RT-PCR

cyclic-GMP-AMP [cGAMP]
IFNβ induction (HEK293T cells stably expressing STING): high level of IFNβ induction
IFNβ induction (HEK293T cells): did not respond
